We go through one substance from patent US20080214606A1, “Methods for the Identification and Use of Compounds Suitable for the Treatment of Drug Resistant Cancer Cells” (The Government of the United States of America as …, priority 2004, published 2008).

Chains of the proteins cited; added tags and fusions are not shown.
UniProt P08183, whole entry: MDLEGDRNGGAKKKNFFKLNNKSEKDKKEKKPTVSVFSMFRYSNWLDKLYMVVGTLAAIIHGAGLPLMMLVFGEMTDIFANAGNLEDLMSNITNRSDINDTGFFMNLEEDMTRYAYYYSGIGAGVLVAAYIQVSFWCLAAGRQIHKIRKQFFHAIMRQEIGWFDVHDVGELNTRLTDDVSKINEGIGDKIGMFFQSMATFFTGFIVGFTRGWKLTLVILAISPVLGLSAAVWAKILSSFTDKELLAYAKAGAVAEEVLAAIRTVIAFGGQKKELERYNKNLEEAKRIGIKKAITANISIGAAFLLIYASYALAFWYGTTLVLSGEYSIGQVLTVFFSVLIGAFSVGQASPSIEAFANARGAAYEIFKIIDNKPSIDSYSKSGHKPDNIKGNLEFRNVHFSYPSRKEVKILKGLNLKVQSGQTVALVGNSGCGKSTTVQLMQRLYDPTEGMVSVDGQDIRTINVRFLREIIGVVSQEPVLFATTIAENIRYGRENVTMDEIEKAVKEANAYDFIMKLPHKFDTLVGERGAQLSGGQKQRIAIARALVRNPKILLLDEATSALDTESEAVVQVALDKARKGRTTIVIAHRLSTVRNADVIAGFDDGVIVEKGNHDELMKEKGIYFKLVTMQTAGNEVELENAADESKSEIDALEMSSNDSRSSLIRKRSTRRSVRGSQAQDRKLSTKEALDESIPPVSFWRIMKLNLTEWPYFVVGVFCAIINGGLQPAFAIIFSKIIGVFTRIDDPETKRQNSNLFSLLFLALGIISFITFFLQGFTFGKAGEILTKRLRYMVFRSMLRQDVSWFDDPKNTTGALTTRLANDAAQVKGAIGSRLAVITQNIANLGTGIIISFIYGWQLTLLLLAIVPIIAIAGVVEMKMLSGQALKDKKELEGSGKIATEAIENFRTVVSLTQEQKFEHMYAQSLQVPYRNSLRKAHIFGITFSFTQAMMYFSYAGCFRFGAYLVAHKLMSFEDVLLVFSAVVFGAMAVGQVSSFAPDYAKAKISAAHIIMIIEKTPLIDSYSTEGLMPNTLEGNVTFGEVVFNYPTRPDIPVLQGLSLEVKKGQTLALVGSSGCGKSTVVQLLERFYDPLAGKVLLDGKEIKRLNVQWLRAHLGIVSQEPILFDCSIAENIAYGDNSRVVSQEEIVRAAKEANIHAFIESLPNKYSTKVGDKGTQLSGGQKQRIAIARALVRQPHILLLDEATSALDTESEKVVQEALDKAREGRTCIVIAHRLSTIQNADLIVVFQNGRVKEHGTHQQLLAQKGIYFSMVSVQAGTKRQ

One data set concerns the target MDR1 (Homo sapiens, UniProt P08183). Particulars: tested in various laboratories; cited from earlier work.
A further data set deals with ABCB1 (Homo sapiens, UniProt P08183). Nature of the data set: Correlation of ABCB1 expression with drug sensitivity across the NCI-60. Particulars: Pearson correlation of ABCB1 expression with sensitivity of the 60 cell lines; 1429 compounds; inverse, p < 0.0001. On the procedure: Expression levels are measured by real-time quantitative RT-PCR using the LightCycler RNA Amplification SYBR Green kit and a LightCycler machine (Roche Biochemicals, Indianapolis, Ind.). Specific oligonucleotide probes are designed for each of the ABC transporters using DNAStar Primer Select (DNASTAR Inc.), and they may be synthesized at Lofstrand Laboratories (Gaithersburg, Md.). When possible, the amplicons are designed to encompass exon-intron boundaries to avoid amplification of genomic DNA. Since the Syber Green assay detects accumulation of double stranded DNA, primers are selected (from a battery consisting of about 200 primers) that amplified a single product of the correct size. […]
During PCR amplification, fluorescence emission is measured and recorded in real time by the LightCycler. Crossing point values are calculated, using the LightCycler software package, by the Fit Points analysis method, with baseline fluorescence set at 1. The SyberGreen assay measures accumulation of double-stranded products, and the appearance of primer dimers limits quantitation at high cycle numbers. […] The raw results are expressed as number of cycles to reach the crossing point. If the desired product is not detected, the corresponding value is adjusted to crossing points indicating no expression. To assess the contribution of experimental artifacts, selected cell lines are assessed in replicate. […]

In the case of Bouvardin [NSC 259968], the “Interaction with MDR1” value at MDR1 is given as “interact with MDR1”. The substance further displayed a Correlation at ABCB1 of −0.7570.
